Chains of the proteins cited; added tags and fusions are not shown. Residues count along the entry.
UniProt Q6DLR9, 2-227 limits assumed: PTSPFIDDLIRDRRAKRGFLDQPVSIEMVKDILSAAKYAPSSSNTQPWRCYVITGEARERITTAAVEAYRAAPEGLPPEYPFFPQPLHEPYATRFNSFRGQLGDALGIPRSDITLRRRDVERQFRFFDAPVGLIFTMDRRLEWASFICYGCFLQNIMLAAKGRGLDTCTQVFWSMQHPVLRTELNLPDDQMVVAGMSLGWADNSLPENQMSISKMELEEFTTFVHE
UniProt Q01234, whole entry: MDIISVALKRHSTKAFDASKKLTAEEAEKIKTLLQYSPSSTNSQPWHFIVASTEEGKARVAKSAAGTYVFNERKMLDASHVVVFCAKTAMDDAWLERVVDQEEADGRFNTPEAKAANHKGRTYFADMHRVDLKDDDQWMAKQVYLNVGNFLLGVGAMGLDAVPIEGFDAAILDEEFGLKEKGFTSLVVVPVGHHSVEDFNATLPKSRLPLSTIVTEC

In patent publication US7364881B1, “Biological process for the conversion of nitroarenes to ortho-aminophenols using recombinant E. coli strains” (dated 2008):

Assays:
NB nitroreductase (NbzA) = NB nitroreductase (NbzA) (Ectopseudomonas oleovorans, UniProt Q6DLR9); assay: Reductase activity in cell extracts (initial rate of NADPH disappearance), NbzA expressed in E. coli JS995; details: averages of duplicates, deviation <10%
Protocol: (§1) Cells of E. coli strains carrying the recombinant plasmids were grown at 37° C. in 250 ml of 2×TY medium or 2×LB with 1% glycerol containing 100 μg/ml ampicillin in an incubator shaker until the cultures reached an A600 of 0.8. The cells were induced with 1 mM IPTG by incubating strain JS995 at 30° C. and strain JS996 at 37° C. with shaking for 16 h. The cells were harvested, washed twice in 20 mM potassium phosphate buffer, pH 8, and used directly in whole-cell transformation assays or for the preparation of cell extracts.
(§2) Cells were broken by two passages through a French pressure cell at 20,000 lb/in^2. The resulting lysate was centrifuged at 17,000×g for 20 min at 4° C., and the supernatant was used for enzyme assays. Reductase activity for various nitroaromatic compounds was determined spectrophotometrically by measuring the initial rate of NADPH disappearance. The activity of HAB mutase A was measured spectrophotometrically by monitoring the increase in absorbance at 283 nm, which indicates the formation of 2-aminophenol (2AP) from HAB.

[1] = biological target: E. cloacae nitroreductase (Nfs1) (Enterobacter cloacae, UniProt Q01234); assay: Reductase activity in cell extracts (initial rate of NADPH disappearance), Nfs1 expressed in E. coli JS996; details: averages of duplicates, deviation <10%
Protocol: as §1, §2

[2] = tested on: host strains carrying only the vectors; assay: Nitroreductase activity in extracts of host strains carrying only the vectors
Protocol: as §1, §2

Compound: Cc1c([N+](=O)[O-])cc([N+](=O)[O-])cc1[N+](=O)[O-]
- Specific activity of recombinant nitroreductase NbzA in cell extracts (NB nitroreductase (NbzA)): 2.6 μmol of NADPH oxidized min^−1 mg^−1 protein
- Specific activity of recombinant nitroreductase Nfs1 in cell extracts [1]: 11.1 μmol of NADPH oxidized min^−1 mg^−1 protein
- Nitroreductase activity in the control host strain containing vector alone [2]: 0.30 U mg^−1 protein

This is a selection: effects in other tests are not listed, and their absence says nothing.
